Measurements: US9440982B2 (Eolas Therapeutics, Inc., priority 2012, dated 2016)

By UniProt entry, the sequences of proteins in these tests, tags left out.
UniProt O43614, whole entry: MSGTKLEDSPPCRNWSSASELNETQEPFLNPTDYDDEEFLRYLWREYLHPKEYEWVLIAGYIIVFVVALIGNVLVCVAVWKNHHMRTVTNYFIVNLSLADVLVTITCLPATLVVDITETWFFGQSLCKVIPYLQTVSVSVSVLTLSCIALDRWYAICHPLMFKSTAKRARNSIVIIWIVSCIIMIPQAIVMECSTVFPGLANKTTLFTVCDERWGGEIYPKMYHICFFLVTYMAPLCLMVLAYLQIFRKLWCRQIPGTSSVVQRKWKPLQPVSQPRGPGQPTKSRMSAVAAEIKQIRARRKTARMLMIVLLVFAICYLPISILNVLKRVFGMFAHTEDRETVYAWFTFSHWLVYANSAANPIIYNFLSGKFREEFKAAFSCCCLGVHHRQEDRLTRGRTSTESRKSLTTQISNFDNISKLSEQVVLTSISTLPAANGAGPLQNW

The molecules below were run against T1, OX2 (Homo sapiens, UniProt O43614) (assay: Orexin receptor cell-based functional assay, [Ca2+]i by FLIPR, CHO-OX2 cells). Details: Table 2; CHO-OX2 cells, EC90 of OXA; read-out: IC50 Bioactivity OX2.
T1 construct: expressed in transfected cells; host or cells: CHO (CHO-OX2, kept under selection antibiotic)

SMILES | IC50
Cc1nc(C(=O)N2CCC[C@@H](C)[C@H]2COc2ccc(C(F)(F)F)cn2)c(-c2ccc(F)cc2)s1 (racemic) [Example 79, rac-cis-(3-Methyl-2-(((5-(trifluoromethyl)pyridin-2-yl)oxy)methyl)piperidin-1-yl)(5-(4-fluorophenyl)-2-methylthiazol-4-yl)methanone] | > 10 µM
Cc1nc(C(=O)N2CCC[C@@H](C)[C@H]2COc2nc3ccccc3o2)c(-c2ccc(F)cc2)s1 (racemic) [Example 80, rac-cis-(2-((Benzo[d]oxazol-2-yloxy)methyl)-3-methylpiperidin-1-yl)(5-(4-fluorophenyl)-2-methylthiazol-4-yl)methanone] | > 10 µM
CCc1cnc(OC[C@@H]2[C@H](C)CCCN2C(=O)c2nc(C)sc2-c2ccc(F)cc2)nc1 (racemic) [Example 81, rac-cis-(2-(((5-Ethylpyrimidin-2-yl)oxy)methyl)-3-methylpiperidin-1-yl)(5-(4-fluorophenyl)-2-methylthiazol-4-yl)methanone] | > 10 µM
Cc1nc(C(=O)N2CCC[C@@H](C)[C@H]2CNc2ncc(Cl)cn2)c(-c2ccc(F)cc2)s1 (racemic) [Example 82, rac-cis-(2-(((5-Chloropyrimidin-2-yl)amino)methyl)-3-methylpiperidin-1-yl)(5-(4-fluorophenyl)-2-methylthiazol-4-yl)methanone] | > 10 µM
Cc1cnc(NC[C@@H]2[C@H](C)CCCN2C(=O)c2nc(C)sc2-c2ccc(F)cc2)nc1 (racemic) [Example 83, rac-cis-(3-Methyl-2-(((5-methylpyrimidin-2-yl)amino)methyl)piperidin-1-yl)(5-(4-fluorophenyl)-2-methylthiazol-4-yl)methanone] | > 10 µM
Cc1nc(C(=O)N2CCC[C@@H](C(C)C)[C@H]2CNc2nc3ccccc3o2)c(-c2ccc(F)cc2)s1 (racemic) [Example 84, rac-cis-((2S,3S)-2-((Benzo[d]oxazol-2-ylamino)methyl)-3-isopropylpiperidin-1-yl)(5-(4-fluorophenyl)-2-methylthiazol-4-yl)methanone] | > 10 µM
Cc1nc(C(=O)N2CCC[C@@H](C)[C@H]2CNc2ccc(F)cn2)c(-c2ccc(F)cc2)s1 (racemic) [Example 85, rac-cis-(2-(((5-Fluoropyridin-2-yl)amino)methyl)-3-methylpiperidin-1-yl)(5-(4-fluorophenyl)-2-methylthiazol-4-yl)methanone] | > 10 µM
Cc1ccc(NC[C@@H]2[C@H](C)CCCN2C(=O)c2nc(C)sc2-c2ccc(F)cc2)nc1 (racemic) [Example 86, rac-cis-(3-Methyl-2-(((5-methylpyridin-2-yl)amino)methyl)piperidin-1-yl)(5-(4-fluorophenyl)-2-methylthiazol-4-yl)methanone] | > 10 µM
Cc1nc(C(=O)N2CCC[C@@H](C)[C@H]2CNc2cccc(C(F)(F)F)n2)c(-c2ccc(F)cc2)s1 (racemic) [Example 87, rac-cis-(3-Methyl-2-(((6-(trifluoromethyl)pyridin-2-yl)amino)methyl)piperidin-1-yl) (5-(4-fluorophenyl)-2-methylthiazol-4-yl)methanone] | 0.07 µM
COc1cnc(NC[C@@H]2[C@H](C)CCCN2C(=O)c2nc(C)sc2-c2ccc(F)cc2)nc1 (racemic) [Example 88, rac-cis-(2-(((5-Methoxypyrimidin-2-yl)amino)methyl)-3-methylpiperidin-1-yl) (5-(4-fluorophenyl)-2-methylthiazol-4-yl)methanone] | > 10 µM
Cc1nc(C(=O)N2CCC[C@@H](C)[C@H]2CNc2ccc(C#N)cn2)c(-c2ccc(F)cc2)s1 (racemic) [Example 91, rac-cis-6-(((1-(5-(4-Fluorophenyl)-2-methylthiazole-4-carbonyl)-3-methylpiperidin-2-yl)methyl)amino)nicotinonitrile] | > 10 µM
CO[C@@H]1CCCN(C(=O)c2nc(C)sc2-c2ccc(F)cc2)[C@@H]1CNc1ccc(C(F)(F)F)cn1 (racemic) [Example 92, rac-cis-(3-Methoxy-2-(((5-(trifluoromethyl)pyridin-2-yl)amino)methyl)piperidin-1-yl) (5-(4-fluorophenyl)-2-methylthiazol-4-yl)methanone] | > 4 µM
CO[C@@H]1CCCN(C(=O)c2nc(C)sc2-c2ccc(F)cc2)[C@@H]1CNc1ncc(Cl)cn1 (racemic) [Example 93, rac-cis-(2-(((5-Chloropyrimidin-2-yl)amino)methyl)-3-methoxypiperidin-1-yl)(5-(4-fluorophenyl)-2-methylthiazol-4-yl)methanone] | > 1 µM
Cc1nc(C(=O)N2CCC[C@H](C)[C@H]2CNc2ncc(Cl)cn2)c(-c2ccc(F)cc2)s1 (racemic) [Example 96, rac-trans-(2-(((5-Chloropyrimidin-2-yl)amino)methyl)-3-methylpiperidin-1-yl)(5-(4-fluorophenyl)-2-methylthiazol-4-yl)methanone] | 1.4 µM
Cc1ccc(-n2nccn2)c(C(=O)N2CCC[C@@H](C)[C@H]2CNc2ncc(C(F)(F)F)cn2)c1 (racemic) [Example 97, rac-cis-(3-Methyl-2-(((5-(trifluoromethyl)pyrimidin-2-yl)amino)methyl)piperidin-1-yl)(5-methyl-2-(2H-1,2,3-triazol-2-yl)phenyl)methanone] | > 10 µM
Cc1ccc(-n2nccn2)c(C(=O)N2CCC[C@@H](C)[C@H]2CNc2ncc(Cl)cn2)c1 (racemic) [Example 98, rac-cis-(2-(((5-Chloropyrimidin-2-yl)amino)methyl)-3-methylpiperidin-1-yl)(5-methyl-2-(2H-1,2,3-triazol-2-yl)phenyl)methanone] | > 10 µM
Cc1nc(C(=O)N2C[C@H]3CCC[C@H]3C2CNc2nc3ccccc3o2)c(-c2ccc(F)cc2)s1 (mixture of isomers) [Example 100, (1-((Benzo[d]oxazol-2-ylamino)methyl)hexahydrocyclopenta[c]pyrrol-2(1H)-yl)(5-(4-fluorophenyl)-2-methylthiazol-4-yl)methanone] | > 10 µM
Cc1nc(C(=O)N2C[C@H]3CCC[C@H]3C2COc2ccc(C(F)(F)F)cn2)c(-c2ccc(F)cc2)s1 (mixture of isomers) [Example 101, (5-(4-Fluorophenyl)-2-methylthiazol-4-yl)(1-(((5-(trifluoromethyl)pyridin-2-yl)oxy)methyl)hexahydrocyclopenta[c]pyrrol-2(1H)-yl)methanone] | > 10 µM
Cc1ccc(-c2cccnc2)c(C(=O)N2CCC[C@@H](C)[C@H]2CNc2ccc(C(F)(F)F)cn2)c1 (racemic) [Example 104, rac-cis-(3-Methyl-2-(((5-(trifluoromethyl)pyridin-2-yl)amino)methyl)piperidin-1-yl) (5-methyl-2-(pyridin-3-yl)phenyl)methanone] | 8.8 µM
Cc1ccc(-c2ccc(C)nc2)c(C(=O)N2CCC[C@@H](C)[C@H]2CNc2ccc(C(F)(F)F)cn2)c1 (racemic) [Example 105, rac-cis-(3-Methyl-2-(((5-(trifluoromethyl)pyridin-2-yl)amino)methyl)piperidin-1-yl)(5-methyl-2-(6-methylpyridin-3-yl)phenyl)methanone] | 1.6 µM
Cc1ccc(-c2ccncc2)c(C(=O)N2CCC[C@@H](C)[C@H]2CNc2ccc(C(F)(F)F)cn2)c1 (racemic) [Example 106, rac-cis-(3-Methyl-2-(((5-(trifluoromethyl)pyridin-2-yl)amino)methyl)piperidin-1-yl)(5-methyl-2-(pyridin-4-yl)phenyl)methanone] | > 1 µM
Cc1ccc(-c2cncnc2)c(C(=O)N2CCC[C@@H](C)[C@H]2CNc2ccc(C(F)(F)F)cn2)c1 (racemic) [Example 107, rac-cis-(3-Methyl-2-(((5-(trifluoromethyl)pyridin-2-yl)amino)methyl)piperidin-1-yl) (5-methyl-2-(pyrimidin-5-yl)phenyl)methanone] | > 10 µM
Cc1ccc(-c2ccnn2C)c(C(=O)N2CCC[C@@H](C)[C@H]2CNc2ccc(C(F)(F)F)cn2)c1 (racemic) [Example 108, rac-cis-(3-Methyl-2-(((5-(trifluoromethyl)pyridin-2-yl)amino)methyl)piperidin-1-yl)(5-methyl-2-(1-methyl-1H-pyrazol-5-yl)phenyl)methanone] | > 10 µM
Cc1ccc(-c2ncccn2)c(C(=O)N2CCC[C@@H](C)[C@H]2CNc2ccc(C(F)(F)F)cn2)c1 (racemic) [Example 112, rac-cis-(3-Methyl-2-(((5-(trifluoromethyl)pyridin-2-yl)amino)methyl)piperidin-1-yl)(5-methyl-2-(pyrimidin-2-yl)phenyl)methanone] | > 10 µM
Cc1ccc(-c2ncco2)c(C(=O)N2CCC[C@@H](C)[C@H]2CNc2ccc(C(F)(F)F)cn2)c1 (racemic) [Example 113, rac-cis-(3-Methyl-2-(((5-(trifluoromethyl)pyridin-2-yl)amino)methyl)piperidin-1-yl)(5-methyl-2-(oxazol-2-yl)phenyl)methanone] | 0.19 µM
Cc1ccc(-n2nccn2)c(C(=O)N2CCC[C@@H](C)[C@H]2CNc2ccc(C(F)(F)F)cn2)c1 (racemic) [Example 114, rac-cis-(3-Methyl-2-(((5-(trifluoromethyl)pyridin-2-yl)amino)methyl)piperidin-1-yl)(5-methyl-2-(2H-1,2,3-triazol-2-yl)phenyl)methanone] | > 10 µM
Cc1ccc(-n2ccnn2)c(C(=O)N2CCC[C@@H](C)[C@H]2CNc2ccc(C(F)(F)F)cn2)c1 (racemic) [Example 115, rac-cis-(3-Methyl-2-(((5-(trifluoromethyl)pyridin-2-yl)amino)methyl)piperidin-1-yl)(5-methyl-2-(1H-1,2,3-triazol-1-yl)phenyl)methanone] | > 10 µM
Cc1ccc(-n2cncn2)c(C(=O)N2CCC[C@@H](C)[C@H]2CNc2ccc(C(F)(F)F)cn2)c1 (racemic) [Example 117, rac-cis-(3-Methyl-2-(((5-(trifluoromethyl)pyridin-2-yl)amino)methyl)piperidin-1-yl)(5-methyl-2-(1H-1,2,4-triazol-1-yl)phenyl)methanone] | > 10 µM
